Bioassay records from PubChem.
This is a sample that favours compounds with a hit; in the whole collection about 13% have one here.
G9a inh: blocks human histone lysine methyltransferase G9a | Q96KQ7 | Potency, µM (doses to about 102 µM), inactives show top-dose activity, negative = inhibition, most hits filed as inhibitors | 350,000 compounds, 8.8% hits | G9a H3K9 monomethylation, AlphaScreen, 2 h; also: potency is read from the fitted curve at half-maximal effect; % is scaled to controls: 0 for no effect and ±100 for the full control effect; nearly all actives have a fitted effect of over 75% in size
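AlphaScreen detection with an anti-monomethyl H3K9 antibody quantified product after a 2 h room-temperature reaction containing 500 nM biotinylated H3K9 peptide, 20 µM SAM and 20 nM enzyme, which had been preincubated 15 min with compound.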
miR-21 reporter: miR-21 reporter, rising signal | HeLa miR-21 FLuc reporter, luciferase, 48 h | Potency, µM (top dose mostly 38.3 µM), inactives show at the top dose reporter change, positive = more light | 340,000 tested, under 10 active | AID 2288; active = well fitted rising curve with a large enough effect; inconclusive = small, poorly fitted or top-dose-only effect; inactive = no such curve, though single readings can be large or run the other way;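 further: % of control where 0% means no effect; miR-21 action dims this reporter so a rising signal means less miR-21 action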
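HeLa miR-21-FLuc reporter line, endogenous miR-21; 2000 cells/well in DMEM/10% FBS; compound titration up to ~40uM final, 48 h, 37 degree Celsius; luciferase detection reagent, 15 min lysis, CCD luminescence.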
Sfp PPTase inh: qHTS Assay for Inhibitors of Bacillus subtilis Sfp phosphopantetheinyl transferase (PPTase); actives 3.5% (n = 310,000); AID 1490, 2009; Biochemical Sfp PPTase activity, qHTS; Potency, µM, for inactives: max response, negative = inhibition, usual class: inhibitors; 4'-phosphopantetheinyl transferase ffp (Bacillus subtilis), Q9F4F7; active means well fitted inhibition curve with a large enough effect; inconclusive means small, poorly fitted or top-dose-only effect, or another doubt; inactive means no such curve, though single readings can be large or run the other way;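 further: the enzyme is Sfp with the accession as filed and its product quenches rhodamine fluorescence; potency means the concentration at half of the fitted maximal effect; 0% = enzyme reaction without inhibitor and -100% = no enzyme wells; top concentration of the series not given in the record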
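Buffer: 50 mM Hepes-Na pH 7.6, 10 mM MgCl2, 0.01% Nonidet P-40, 0.01% BSA. Enzyme 15 nM, pre-exposed to compound 15 min; substrates then added and fluorescence change tracked over 30 min.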
JMJD2E inh: inhibitors of human JMJD2E histone demethylase. 230,000 compounds, 1.6% hits. JMJD2E catalytic domain, FDH-coupled NADH fluorescence (FDH is formaldehyde dehydrogenase). AID 2147. Potency, µM (highest dose often 57.1 µM), for the others: top-dose activity change, negative = inhibition, usual class: inhibitors; active = well fitted inhibition curve with a large enough effect, not every such curve was filed as active; inconclusive = small, poorly fitted or top-dose-only effect, or another doubt; inactive = no such curve, though single readings can be large or run the other way;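 also: potency is read from the fitted curve at half-maximal effect; 0% = wells with enzyme and -100% = buffer wells without enzyme; nearly all actives have a fitted effect of over 50% in size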
ALDH1A1 block: inhibitors of human aldehyde dehydrogenase 1A1; 220,000 compounds, 7.3% hits; Potency, µM (titrated, usually from 75.3 µM), inactives show top-dose activity, negative = inhibition, usual class: inhibitors; P00352; Purified ALDH1A1, NADH fluorescence, propionaldehyde substrate; active = well fitted inhibition curve with a large enough effect, not every such curve was filed as active; inconclusive = small, poorly fitted or top-dose-only effect, or another doubt; inactive = no such curve, though single readings can be large or run the other way;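 also: potency is read from the fitted curve at half-maximal effect; plate controls were no enzyme wells and a reference inhibitor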
Lamin A splicing: changes lamin A minigene splicing in HeLa cells; Potency, µM (series often up to 46.1 µM), for the others: top-dose ratio change, negative = inhibition, usual class: inhibitors; HeLa LMNA splicing GFP/RFP minigene ratio, 48 h; AID 1487; 200,000 compounds, 0.01% hits; active = well fitted inhibition curve with a large enough effect in the signal ratio, with a control signal flat, not every such curve was filed as active; inconclusive = small, poorly fitted or top-dose-only effect, or effect the other way, or a change in a side signal; the % refers to the signal ratio; also: potency is read from the fitted curve at half-maximal effect; % is scaled to controls: 0 for no effect and ±100 for the full control effect
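S3 HeLa cells stably expressing lamin A-EGFP splicing minigene plus DsRed2, 600 cells/well, 48 h compound exposure at 37C. Laser-scanning cytometry; analysed as GFP (500-530 nm)/RFP (575-640 nm) total intensity ratio; 0.5% DMSO vehicle.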
* = called active by the depositor; ? = inconclusive; / = no result given; [ ] = dose if it differs, or a comment. Unless noted, calls follow the shape of the dose curve; as a rule, active = well fitted curve in the direction sought with a large enough effect; inconclusive = small, poorly fitted or top-dose-only effect, or another doubt; inactive = no such curve, though single readings can be large; an effect the other way counts as inactive or inconclusive.

| G9a inh | miR-21 reporter | Sfp PPTase inh | JMJD2E inh | ALDH1A1 block | Lamin A splicing | structure |
| --- | --- | --- | --- | --- | --- | --- |
| ? | -11% | 16% | 1% | 13µM* | -2% | COc1ccc(N(C)C(=O)CCS(=O)(=O)c2cccc3nonc23)c(OC)c1 |
| 12%[12.7 µM] | 0% | 5% | -3% | ? | 0% | Cc1cccc(N(C)C(=O)CCS(=O)(=O)c2cccc3nonc23)c1 |
| 16µM* | -5% | 3% | / | / | / | CCN(C(=O)CCS(=O)(=O)c1cccc2nonc12)c1ccc(C)c(C)c1 |
| 4%[59 µM] | -9% | / | / | / | 5%[46 µM] | O=C(COc1ccccc1)NCCc1csc(-c2cccc(F)c2)n1 |
| 15%[59 µM] | -13% | / | / | / | / | O=C(Nc1ccccc1F)c1oc2ccccc2c1NC(=O)c1c(F)cccc1F |
| / | 5% | -3% | / | / | / | COc1ccc(CN2C(=O)c3cccnc3C2=O)cc1S(=O)(=O)N(C)c1ccc(C)cc1 |
| 7%[59 µM] | -12% | 2% | 1% | -10% | 6% | COc1ccc(CCNC(=O)c2cnn(-c3ccc(C)c(C)c3)c2NC(=O)c2ccco2)cc1OC |
| 25µM* | -9% | -62% | -5% | 1µM* | -14% | Cc1ccc(-n2ncc(C(=O)N3CCc4ccccc4C3)c2NC(=O)c2ccco2)cc1C |
| -9% | 3% | -7% | 3% | 1% | 11% | CC(C)(C)c1nc2sc3c(c2c(=O)o1)CCCC3 |
| -15%[59 µM] | -3% | 25µM* | 0% | -6% | 9% | CCc1nc2sc3c(c2c(=O)o1)CCCC3 |
| ? | 3% | 22% | 2% | 13µM* | ? | CCc1nc2sc3c(c2c(=O)n1NC(=O)CCl)CCCC3 |
| 7%[59 µM] | 4% | / | / | / | / | COc1cccc(NC(=O)Cn2c(=O)n(-c3ccc(CC(=O)NCC4CCCO4)cc3)c(=O)c3ccccc32)c1 (stereo unspecified) |
| 50µM* | -6% | 20µM* | -19% | 22µM* | ? | O=C(NCc1ccco1)c1nn2c(C(F)(F)F)cc(-c3cccs3)nc2c1Br |
| 45µM* | -13% | -29% | ? | ? | -7% | O=C(NCc1ccco1)c1nc2nc(-c3cccs3)cc(C(F)(F)F)n2n1 |
| ? | -1% | / | / | / | / | COc1cccc(N2C(=O)CSC23C(=O)N(Cc2ccccc2)c2ccccc23)c1 (stereo unspecified) |
| ? | 1% | 2% | 3% | 14µM* | -5% | CC1NC2(C(=O)N(Cc3ccccc3)c3ccccc32)C2C(=O)N(c3ccccc3)C(=O)C12 (stereo unspecified) |
| 7% | 0% | 9% | / | / | / | CC1(C)CC(=O)N(c2cc(Cl)cc(Cl)c2)C(=O)C1 |
| 50µM* | 4% | -15% | 7% | / | / | O=C(O)c1ccc(S(=O)(=O)c2ccc3c(c2)C(=O)N(NC(=O)c2ccncc2)C3=O)cc1 |
| -3% | -61% | 0% | 7% | -4% | / | O=C(O)c1ccc(S(=O)(=O)c2ccc3c(c2)C(=O)N(NC(=O)c2ccccc2)C3=O)cc1 |
| 1%[2.33 µM] | / | / | / | / | / | COc1ccc(CCNC(=O)COC(=O)c2sc(C)nc2C)cc1 |
| / | 28% | -6% | ? | ? | 9% | c1ccc(C[n+]2cccc3c4ccccc4ccc32)cc1 |
| 50µM* | ? | 17% | ? | ? | / | CCCCC[n+]1cccc2c3ccccc3ccc21 |
| 10µM* | -20% | 50µM* | -24% | ? | ? | O=C1NC(=S)/C(=C\c2ccc(-c3ccccc3Cl)o2)S1 |
| ? | -26% | -3% | / | / | / | O=C1NC(=O)/C(=C/c2cc3c(cc2Br)OCO3)S1 |
| 45µM* | -27% | ? | / | / | / | O=C1NC(=O)/C(=C\c2ccc(Br)o2)S1 |

Arranged by molecular weight (ascending): five of the compounds above
| G9a inh | miR-21 reporter | Sfp PPTase inh | JMJD2E inh | ALDH1A1 block | Lamin A splicing | structure |
| --- | --- | --- | --- | --- | --- | --- |
| 50µM* | ? | 17% | ? | ? | / | CCCCC[n+]1cccc2c3ccccc3ccc21 |
| ? | 3% | 22% | 2% | 13µM* | ? | CCc1nc2sc3c(c2c(=O)n1NC(=O)CCl)CCCC3 |
| 12%[12.7 µM] | 0% | 5% | -3% | ? | 0% | Cc1cccc(N(C)C(=O)CCS(=O)(=O)c2cccc3nonc23)c1 |
| / | 5% | -3% | / | / | / | COc1ccc(CN2C(=O)c3cccnc3C2=O)cc1S(=O)(=O)N(C)c1ccc(C)cc1 |
| 7%[59 µM] | -12% | 2% | 1% | -10% | 6% | COc1ccc(CCNC(=O)c2cnn(-c3ccc(C)c(C)c3)c2NC(=O)c2ccco2)cc1OC |

(cont.)
| G9a inh | miR-21 reporter | Sfp PPTase inh | JMJD2E inh | ALDH1A1 block | Lamin A splicing | structure |
| --- | --- | --- | --- | --- | --- | --- |
| / | 0% | 32µM* | / | / | / | O=C1NC(=O)/C(=C/c2ccc(-c3cc(C(=O)O)ccc3Cl)o2)S1 |
| ? | -8% | -9% | -2% | -1% | 0% | Cc1noc(/C=C/c2ccc(-c3ccccc3Cl)o2)c1[N+](=O)[O-] |
| / | 0% | 5% | / | / | / | COC(=O)C1CCN(C(=O)COC(=O)c2oc3ccc(OC)cc3c2C)CC1 |
| 0%[59 µM] | -3% | / | / | / | 3%[46 µM] | COc1ccc2c(c1)CC(NC(=O)Nc1ccc(NC(C)=O)cc1)CO2 (stereo unspecified) |
| 12%[59 µM] | -2% | / | / | / | / | Cc1cccc(NC(=O)Cn2c(=O)n(Cc3ccccc3)c(=O)c3sc4ccccc4c32)c1 |
| 89% | -58% | 32µM* | ? | / | / | CC(=Nc1ccc(Br)cc1)c1sc2ccccc2c1O |
| 36% | -3% | 7% | / | / | / | O=C(NCc1cccnc1)NC(=O)c1ccc(Cl)cc1 |
| 56µM* | 4% | 2% | / | / | / | C=CCNC(=O)c1onc(CSc2nc3ccccc3[nH]2)c1C(=O)NCC=C |
| -4% | 1% | 6% | 23% | 2.8µM* | / | Cc1cc(C)nc(SCc2ccc(C(=O)NN=C3CCCC3)cc2)n1 |
| 50µM* | -1% | 56µM* | 4% | 4% | 9% | Cc1cc(C)nc(SCNC(=O)c2ccc(Cl)cc2)n1 |
| 84% | -12% | -2% | / | / | / | Cc1cc(C)nc(SCc2ccc(Cl)cc2)n1 |
| 15%[59 µM] | -1% | 7% | 3% | -3% | -1% | Cc1cc(C(=O)N/N=C2\CCCC(=O)C2)c2ccccc2n1 |
| 0% | -5% | -8% | ? | 8.9µM* | -11%[46 µM] | Cc1cc(C)nc(SCc2ccc(C(=O)N/N=C3\CCCC(=O)C3)cc2)n1 |
| / | / | 9% | 1% | -5% | / | COC(=O)c1ccc(C(NC(=O)OCc2ccccc2)/C(F)=C/[C@@H](C)C(=O)NCc2cc(C)on2)cc1 (stereo partly specified) |
| ? | -4% | / | / | / | / | O=C(NCc1ccccc1Cl)C1CCN(S(=O)(=O)Cc2ccccc2)CC1 |
| / | / | ? | -18% | 0% | / | CCC1CN2CCC1CC2[C@@H](NC(=S)Nc1cc(C(F)(F)F)cc(C(F)(F)F)c1)c1cccc2ccc(OC)cc12 (stereo partly specified) |
| -15%[59 µM] | 5% | / | / | / | -6%[46 µM] | COc1ccc(CNC(=O)CN2N=C(c3ccc(Cl)cc3)CCC2=O)cc1 |
| ? | -6% | 8% | 4% | 2.2µM* | 12% | CC1CCCCN1c1nc2nonc2nc1N1CCCCC1C (stereo unspecified) |
| -5%[59 µM] | -4% | -2% | -4% | 5% | -9% | COc1ccccc1Nc1nc2nonc2nc1N1CCCCC1C (stereo unspecified) |
| -8%[59 µM] | -23% | 3% | -1% | -15% | ? | CN(C)/C=C/C(=O)c1ccc(Br)cc1 |
| 20µM* | 1% | 10% | 0% | 13µM* | -3%[46 µM] | CN(O)/C=C/C(=O)c1ccc(Br)cc1 |
| 3%[59 µM] | 11% | / | / | / | 7%[46 µM] | COc1ccc(Cl)cc1NC(=O)c1cc(S(=O)(=O)NC2CCCCCC2)ccc1F |
| 1%[0.501 µM] | / | / | / | / | / | Cc1ccc(S(=O)(=O)CCC(=O)N(CCN2CCOCC2)c2nc3ccccc3s2)cc1 |
| 56µM* | / | / | / | / | / | Cc1cccc2sc(N(CCCN3CCOCC3)C(=O)CS(=O)(=O)c3ccc(F)cc3)nc12 |
